Assay results: US12129266B2, “Substituted pyrazolo[1,5-a]pyridine compound, composition containing the same and use thereof” (Shenzhen TargetRx, Inc., priority 2018, dated 2024)

System: Ba/F3 parental
Assay: cells
Conditions: Mus musculus, BaF3, 72 h, read-out: IC50 (nM) Ba/F3 parental

Row | SMILES | IC50
1 | [2H]C([2H])([2H])Oc1ccc(CN2C3CC2CN(c2ccc(-c4cc(-c5cnn(C)c5)cn5ncc(C#N)c45)cn2)C3)cn1 [Example 1, 4-(6-(6-((6-(methoxy-d3)pyridin-3-yl)methyl)-3,6-diazabicyclo[3.1.1]heptan-3-yl)pyridin-3-yl)-6-(1-methyl-1H-pyrazol-4-yl)pyrazolo[1,5-a]pyridine-3-carbonitrile] | 288 nM
2 | [2H]C([2H])(c1ccc(OC)nc1)N1C2CC1CN(c1ccc(-c3cc(-c4cnn(C)c4)cn4ncc(C#N)c34)cn1)C2 [Example 2, 4-(6-(6-((6-methoxypyridin-3-yl)methyl-d2)-3,6-diazabicyclo[3.1.1]heptan-3-yl)pyridin-3-yl)-6-(1-methyl-1H-pyrazol-4-yl)pyrazolo[1,5-a]pyridine-3-carbonitrile] | 296 nM
3 | [2H]C([2H])([2H])Oc1ccc(C([2H])([2H])N2C3CC2CN(c2ccc(-c4cc(-c5cnn(C)c5)cn5ncc(C#N)c45)cn2)C3)cn1 [Example 3, 4-(6-(6-((6-(methoxy-d3)pyridin-3-yl)methyl-d2)-3,6-diazabicyclo[3.1.1]heptan-3-yl)pyridin-3-yl)-6-(1-methyl-1H-pyrazol-4-yl)pyrazolo[1,5-a]pyridine-3-carbonitrile] | 260 nM
4 | [2H]C([2H])([2H])Oc1ccc(CN2C3CC2CN(c2ccc(-c4cc(-c5cnn(C([2H])([2H])[2H])c5)cn5ncc(C#N)c45)cn2)C3)cn1 [Example 4, 4-(6-(6-((6-(methoxy-d3)pyridin-3-yl)methyl)-3,6-diazabicyclo[3.1.1]heptan-3-yl)pyridin-3-yl)-6-(1-(methyl-d3)-1H-pyrazol-4-yl)pyrazolo[1,5-a]pyridine-3-carbonitrile] | 261 nM
5 | [2H]C([2H])(c1ccc(OC)nc1)N1C2CC1CN(c1ccc(-c3cc(-c4cnn(C([2H])([2H])[2H])c4)cn4ncc(C#N)c34)cn1)C2 [Example 5, 4-(6-(6-((6-methoxypyridin-3-yl)methyl-d2)-3,6-diazabicyclo[3.1.1]heptan-3-yl)pyridin-3-yl)-6-(1-(methyl-d3)-1H-pyrazol-4-yl)pyrazolo[1,5-a]pyridine-3-carbonitrile] | 261 nM
6 | [2H]C([2H])([2H])Oc1ccc(C([2H])([2H])N2C3CC2CN(c2ccc(-c4cc(-c5cnn(C([2H])([2H])[2H])c5)cn5ncc(C#N)c45)cn2)C3)cn1 [Example 6, 4-(6-(6-((6-(methoxy-d3)pyridin-3-yl)methyl-d2)-3,6-diazabicyclo[3.1.1]heptan-3-yl)pyridin-3-yl)-6-(1-(methyl-d3)-1H-pyrazol-4-yl)pyrazolo[1,5-a]pyridine-3-carbonitrile] | 252 nM
7 | [2H]C([2H])([2H])n1cc(-c2cc(-c3ccc(N4CC5CC(C4)N5Cc4ccc(OC)nc4)nc3)c3c(C#N)cnn3c2)cn1 [Example 7, 4-(6-(6-((6-methoxypyridin-3-yl)methyl)-3,6-diazabicyclo[3.1.1]heptan-3-yl)pyridin-3-yl)-6-(1-(methyl-d3)-1H-pyrazol-4-yl)pyrazolo[1,5-a]pyridine-3-carbonitrile] | 664 nM
